Earlier results on 35 compounds are cited in PubChem BioAssay AID1811.

What all share (assay): PubChem AID 1811
The target of series [1] is inhibitor of apoptosis protein 3. Particulars: PDB complex binding affinities from literature; Kd when reported.
The next series addresses epoxide hydrolase. As to conditions: PDB complex binding affinities from literature; Ki when reported.
For series [2], the target named is histone deacetylase-like protein (hdlp). Particulars: PDB complex binding affinities from literature; IC50 when reported.
Another series addresses Polycomb protein Scm. As to conditions: PDB complex binding affinities from literature; Kd when reported.
Series [3] deals with oligo-peptide binding protein. As to conditions: PDB complex binding affinities from literature.
Another series deals with diga16. As to conditions: PDB complex binding affinities from literature; Kd when reported.
Series [4] deals with poly (adp-ribose) polymerase. As to conditions: PDB complex binding affinities from literature; IC50 when reported.
A further series has as its target phospholipase a2. As to conditions: PDB complex binding affinities from literature; Ki when reported.
The target of a further series is beta-lactamase ctx-m-9. Particulars: PDB complex binding affinities from literature; Ki when reported.
The next series addresses beta-lactamase. Particulars: PDB complex binding affinities from literature; Ki when reported.
A further series deals with 1H62 A. Particulars: PDB complex binding affinities from literature; Kd when reported.
The target of another series is thrombin. As to conditions: PDB complex binding affinities from literature; Ki when reported.
Series [5] concerns the target urokinase-type plasminogen activator. As to conditions: PDB complex binding affinities from literature; Ki when reported.
Another series addresses secretase beta. As to conditions: PDB complex binding affinities from literature; Ki when reported.
For series [6], the target named is methionine aminopeptidase. As to conditions: PDB complex binding affinities from literature; IC50 when reported.
In another series the target is hydroxynitrile lyase. As to conditions: PDB complex binding affinities from literature; Ki when reported.
In series [7] the target is membrane lipoprotein tmpc. Particulars: PDB complex binding affinities from literature; Kd when reported.
Series [8] deals with putrescine-binding protein. As to conditions: PDB complex binding affinities from literature; Kd when reported.
The target of series [9] is orotidine 5'-monophosphate decarboxylase. As to conditions: PDB complex binding affinities from literature; Ki when reported.
For series [10], the target named is maltodextrin binding protein. As to conditions: PDB complex binding affinities from literature; Ki when reported.
Another series concerns the target lectin. As to conditions: PDB complex binding affinities from literature; Kd when reported.
The target of the next series is coagulation factor xa. As to conditions: PDB complex binding affinities from literature; Ki when reported.
Series [11] deals with heat shock protein 90 alpha. As to conditions: PDB complex binding affinities from literature; IC50 when reported.
The target in another series is avidin. As to conditions: PDB complex binding affinities from literature; Kd when reported.
The target in series [12] is fatty acid-binding protein. As to conditions: PDB complex binding affinities from literature; Kd when reported.
The target in a further series is collagenase 3 (mmp-13). Particulars: PDB complex binding affinities from literature; IC50 when reported.
The target in series [13] is fk506 binding protein (fkbp). Particulars: PDB complex binding affinities from literature; Kd when reported.
The next series deals with HIV-1 protease. As to conditions: PDB complex binding affinities from literature; Ki when reported.
The target of series [14] is Serine/threonine-protein kinase PLK1. As to conditions: PDB complex binding affinities from literature; IC50 when reported.
In series [15] the target is deoxyuridine 5'-triphosphate nucleotidohydrolase. Particulars: PDB complex binding affinities from literature; Ki when reported.

`CC[C@H](C)[C@H](NC(=O)[C@@H]1CCCN1C(=O)[C@@H](NC(=O)[C@H](C)N)C(C)C)C(=O)N[C@@H](C)C(=O)N[C@@H](CCC(N)=O)C(=O)N[C@@H](CCCCN)C(=O)N[C@@H](CO)C(=O)N[C@@H](CCC(=O)O)C(=O)O`: the Kd in [1] was 0.43 µM. With `O=C(Nc1ccc(I)cc1)NC1CCCCC1`, the Ki at epoxide hydrolase is 0.017 µM. For `CC(/C=C/C(=O)NO)=C\[C@@H](C)C(=O)c1ccc(N(C)C)cc1`, the IC50 in [2] was 0.4 µM. On to `CN(C)CCCC[C@H](N)C(=O)O`, for which the Kd on Polycomb protein Scm was 10000 µM. Turning to `NCCCC[C@H](NC(=O)[C@@H](N)CCCCN)C(=O)O`, in [3] (Ki when reported), the Ki was 125 µM. With `C[C@]12CC[C@H](O)C[C@H]1CC[C@@H]1[C@@H]2CC[C@]2(C)[C@@H](C3=CC(=O)OC3)CC[C@]12O`, the Kd on diga16 is 0.002 µM. For the compound `COc1cccc(C(N)=O)c1`, the IC50 in series [4] is 10 µM.

Turning to `COc1ccc(C(=O)O)cc1`, the Ki on phospholipase a2 is 18 µM. With `CC(C)(O/N=C(\C(=O)N[CH2][Al])c1csc(N)n1)C(=O)O`, the Ki on beta-lactamase ctx-m-9 is 0.015 µM; on beta-lactamase, 0.02 µM. In the case of `C[C@]12C=CC(=O)C=C1CC[C@@H]1[C@@H]2CC[C@]2(C)C(=O)CC[C@@H]12`, on 1H62 A, the Kd was 17 µM.

With `N=C(N)c1ccc2nc(-c3cccc(-c4ccccc4)c3O)[nH]c2c1`, the Ki on thrombin is 11 µM. With `COc1ccc2ccc(C(=N)N)cc2c1C1CNN(S(C)(=O)=O)C1` (stereo unspecified), in [5], the Ki was 0.63 µM. Consider `Nc1ccc2c3c(cccc13)C(=O)NC2=O`, for which, in series [4], the IC50 was 0.18 µM. On to `NCCCC[C@H](NC(=O)[C@H](CCCN=C(N)N)NC(=O)[C@@H](N)CCCCN)C(=O)O`, for which the Kd in series [3] (Kd when reported) was 1.2 µM.

Take `CC(C)C[C@H](NC(=O)[C@H](CC(N)=O)NC(=O)[C@@H](NC(=O)[C@@H](N)CCC(=O)O)C(C)C)[C@@H](O)C[C@@H](C)C(=O)N[C@@H](C)C(=O)N[C@@H](CCC(=O)O)C(=O)N[C@@H](Cc1ccccc1)C(=O)O`: the Ki at secretase beta was 0.0016 µM.

For the compound `CS(=O)(=O)Nc1cccc2cccnc12`, in series [6], the IC50 is 2.14 µM. Regarding `OCC(Cl)(Cl)Cl`, the Ki at hydroxynitrile lyase was 390 µM. For the compound `O=c1[nH]cnc2c1ncn2[C@@H]1O[C@H](CO)[C@@H](O)[C@H]1O`, the Kd in series [7] is 0.21 µM.

In the case of `NCCCCN`, in series [8], the Kd was 2 µM. Regarding `O=C1CC(=O)N([C@@H]2O[C@H](COP(=O)(O)O)[C@@H](O)[C@H]2O)C(=O)N1`, the Ki in [9] is 8.8 pM. Regarding `OC[C@H]1O[C@H](O[C@H]2[C@H](O)[C@@H](O)[C@@H](O[C@H]3[C@H](O)[C@@H](O)[C@@H](O)O[C@@H]3CO)O[C@@H]2CO)[C@H](O)[C@@H](O)[C@@H]1O`, the Ki in [10] is 0.16 µM. For `CC(=O)N[C@@H]1[C@@H](O)[C@H](O[C@@H]2O[C@H](CO)[C@H](O)[C@H](O)[C@H]2O)[C@@H](CO)O[C@@H]1O`, at lectin, the Kd is 103 µM. For `CC(=N)N1CC[C@H](Oc2ccc([C@H](Cc3ccc4ccc(C(=N)N)cc4c3)C(=O)O)cc2)C1`, the Ki at coagulation factor xa is 0.041 µM. With `Nc1nc2c(ncn2[C@@H]2O[C@H](CO)[C@@H](O)[C@H]2O)c(=O)[nH]1`, in series [7], the Kd was 0.071 µM.

Consider `CC(C)NCCCn1c(Sc2cc3c(cc2Br)OCO3)nc2c(N)ncnc21`, for which the IC50 in series [11] was 0.2 µM. For `Nc1nc2c([nH]c(=O)n2[C@H]2C[C@H](O)[C@@H](CO)O2)c(=O)[nH]1`, at avidin, the Kd was 117 µM. `CC/C=C\C/C=C\C/C=C\C/C=C\C/C=C\C/C=C\CCC(=O)O`: the Kd in [12] is 0.0534 µM. For the compound `N=C(N)c1ccc(CNC(=O)[C@H](CO)NC(=O)[C@@H](CO)NS(=O)(=O)Cc2ccccc2)cc1`, the Ki in [5] was 0.02 µM. For the compound `COc1ccc(S(=O)(=O)N(Cc2cccnc2)c2c(C)cccc2C(=O)NO)cc1`, the IC50 on collagenase 3 (mmp-13) is 0.033 µM. With `CCC(C)(C)C(=O)C(=O)N1CCC[C@H]1C(=O)OCCCc1cccnc1`, in [13], the Kd is 1 µM. For `OC[C@H]1O[C@H](O[C@H]2[C@H](O)[C@@H](O)[C@@H](O[C@H]3[C@H](O)[C@@H](O)[C@@H](O[C@H]4[C@H](O)[C@@H](O)[C@@H](O)O[C@@H]4CO)O[C@@H]3CO)O[C@@H]2CO)[C@H](O)[C@@H](O)[C@@H]1O`, the Ki in series [10] was 2.3 µM. `OC(O)(C(F)(F)F)C(F)(F)F`: on hydroxynitrile lyase, the Ki was 550 µM. For `N#Cc1ccc(S(=O)(=O)Nc2cccc([C@@H](c3c(O)c4c(oc3=O)CCCCCC4)C3CC3)c2)cc1`, at HIV-1 protease, the Ki was 0.0006 µM. In the case of `Nc1ncnc2c1ncn2C1O[C@H](COP(=O)(O)OP(=O)(O)NP(=O)(O)O)[C@@H](O)[C@H]1O` (stereo partly specified), the IC50 in series [14] was 155 µM. As to `O=c1ccn([C@H]2C[C@H](O)[C@@H](COP(=O)(O)OP(=O)(O)O)O2)c(=O)[nH]1`, in series [15], the Ki is 15 µM.
